Each structure is given as a SMILES string.

The nature of the data set: Toxicity in mice. Conditions: 50 mg/kg intravenously daily for 7 days.

As to `O=C(N/N=C\c1c(O)ccc2ccccc12)c1cccc2cc[nH]c12` [Pac 1, N′—[(Z)-(2-Hydroxy-1-naphthyl)methylene]-1H-indole-7-carbohydrazide], the “weight loss and adverse effects on well-being” value is reported as “No weight loss or apparent adverse or distressing effects”.
`Fc1ccc(Nc2nc(N/N=C/c3ccc4c(c3)OCO4)nc(N3CCOCC3)n2)cc1` [Pac 2, 1,3-benzodioxole-5-carbaldehyde [4-[(4-fluorophenyl)amino]-6-(4-morpholinyl)-1,3,5-triazin-2-yl]hydrazine]: the “weight loss and adverse effects on well-being” value is given as “No weight loss or apparent adverse or distressing effects”.
